Measurements taken from ChEMBL document CHEMBL1154676, “Synthetic mRNA splicing modulator compounds with in vivo antitumor activity” (J Med Chem, 2009).
Converted amounts (≈) assume the structure as drawn.

Tests used:
[1] = Chemical stability in phosphate buffer assessed as half life at pH 7.4 at 22 degC; format: physicochemical
[2] = Solubility in PBS; format: physicochemical; conditions: buffer

CC(=O)O[C@@H](C)/C=C\C(=O)N[C@H]1CC[C@@H](C/C=C(C)/C=C/[C@@H]2C[C@]3(CO3)CC(C)(C)O2)CC1
t1/2 [1]: 50 days

CC(/C=C/[C@@H]1C[C@]2(CO2)CC(C)(C)O1)=C\C[C@H]1OC[C@@H](NC(=O)/C=C\[C@H](C)OC(=O)C(C)C)CO1
solubility [2]: 47 µM (≈ 23.1 µg/mL)

CC(/C=C/[C@@H]1C[C@]2(CO2)CC(C)(C)O1)=C\C[C@H]1CC[C@@H](NC(=O)/C=C\[C@H](C)OC(=O)C(C)C)CC1
t1/2 [1]: 50 days
solubility [2]: < 1 µM
